Molecular target: CYP1A2 (Homo sapiens, UniProt P05177)
Settings: GLPG1205 relative to placebo (ANOVA)

Protein sequences, listed by entry. Tags and fused reporters are not part of them.
UniProt P05177, whole entry: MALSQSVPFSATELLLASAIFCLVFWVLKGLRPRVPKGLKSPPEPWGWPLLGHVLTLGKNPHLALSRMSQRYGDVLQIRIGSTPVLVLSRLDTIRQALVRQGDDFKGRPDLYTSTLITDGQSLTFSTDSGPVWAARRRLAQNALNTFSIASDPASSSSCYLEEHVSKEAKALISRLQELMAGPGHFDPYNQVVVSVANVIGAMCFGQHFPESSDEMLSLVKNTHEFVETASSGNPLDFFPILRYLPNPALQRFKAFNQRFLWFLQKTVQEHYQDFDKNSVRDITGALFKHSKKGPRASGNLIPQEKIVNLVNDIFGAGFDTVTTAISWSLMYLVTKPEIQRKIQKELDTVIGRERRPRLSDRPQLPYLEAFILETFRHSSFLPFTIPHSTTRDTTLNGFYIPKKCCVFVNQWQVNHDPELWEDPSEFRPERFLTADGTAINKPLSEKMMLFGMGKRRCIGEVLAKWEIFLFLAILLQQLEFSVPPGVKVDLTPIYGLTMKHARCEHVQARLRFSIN

Cn1c(=O)c2c(ncn2C)n(C)c1=O [Caffeine, caffeine]
AUC0‐inf, PE (90% CI) of least‐squares geometric means ratio: 0.93 (0.81‐1.07)
AUC0‐t, PE (90% CI) of least‐squares geometric means ratio: 0.96 (0.86‐1.06)
Cmax, PE (90% CI) of least‐squares geometric means ratio: 0.99 (0.88‐1.11)
t1/2, λz, PE (90% CI) of least‐squares geometric means ratio: 0.92 (0.83‐1.01)

From PMC8453848, “Effect of GLPG1205, a GPR84 Modulator, on CYP2C9, CYP2C19, and CYP1A2 Enzymes: In Vitro and Phase 1 Studies” (Clinical Pharmacology in Drug Development, 2021)
